Measured values taken from patent US8580794B2 (AbbVie Inc., priority 2009, dated 2013).
Where two headings read alike, the source gives them in different places.

Amino acid sequences for entries named in this document (tags omitted).
UniProt P10415, whole entry: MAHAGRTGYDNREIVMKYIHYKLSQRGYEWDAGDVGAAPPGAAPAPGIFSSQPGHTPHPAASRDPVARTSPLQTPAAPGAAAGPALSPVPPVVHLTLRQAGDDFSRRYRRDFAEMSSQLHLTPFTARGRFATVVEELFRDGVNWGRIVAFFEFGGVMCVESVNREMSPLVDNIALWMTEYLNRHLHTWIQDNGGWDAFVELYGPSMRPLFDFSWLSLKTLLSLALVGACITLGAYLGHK

Molecular target: GST-Bc1-2 (Homo sapiens, UniProt P10415)
Assay: Time Resolved-Fluorescence Resonance Energy Transfer (TR-FRET) Bcl-2 binding assay with F-Bak peptide probe
[1] = GST-Bcl-2 1 nM, F-Bak probe 100 nM, Tb-anti-GST 1 nM, '<' = below limit of detection, read-out: TR-FRET Bcl-2 Binding Ki

Row | Compound | Ki [1] [nM] | Ki (Table 5, direct comparison Z=N vs Z=C analogs, read-out: Bcl-2 FRET ki) [nM]
1 | CN1CCN(Nc2ccc(S(=O)(=O)NC(=O)c3ccc(N4CCN(CC5=C(c6ccc(Cl)cc6)CC(C)(C)CC5)CC4)cc3Oc3cnc4[nH]ccc4c3)cc2[N+](=O)[O-])CC1 [Example 6, 4-(4-{[2-(4-chlorophenyl)-4,4-dimethylcyclohex-1-en-1-yl]methyl}piperazin-1-yl)-N-({4-[(4-methylpiperazin-1-yl)amino]-3-nitrophenyl}sulfonyl)-2-(1H-pyrrolo[2,3-b]pyridin-5-yloxy)benzamide] | 0.018 | 0.018
2 | CO[C@H]1CC[C@H](CNc2ccc(S(=O)(=O)NC(=O)c3ccc(N4CCN(CC5=C(c6ccc(Cl)cc6)CCC6(CCCC6)C5)CC4)cc3Oc3cnc4[nH]ccc4c3)cc2[N+](=O)[O-])CC1 [Example 74, Trans-4-(4-{[8-(4-chlorophenyl)spiro[4.5]dec-7-en-7-yl]methyl}piperazin-1-yl)-N-[(4-{[(4-methoxycyclohexyl)methyl]amino}-3-nitrophenyl)sulfonyl]-2-(1H-pyrrolo[2,3-b]pyridin-5-yloxy)benzamide] | 0.029 | –
3 | CC1(C)CCCC(c2ccc(Cl)cc2)=C1CN1CCN(c2ccc(C(=O)NS(=O)(=O)c3ccc(NCC4CCOCC4)c([N+](=O)[O-])c3)c(Oc3cnc4[nH]ccc4c3)c2)CC1 [Example 101, 4-(4-{[2-(4-chlorophenyl)-6,6-dimethylcyclohex-1-en-1-yl]methyl}piperazin-1-yl)-N-({3-nitro-4-[(tetrahydro-2H-pyran-4-ylmethyl)amino]phenyl}sulfonyl)-2-(1H-pyrrolo[2,3-b]pyridin-5-yloxy)benzamide] | 0.021 | –
4 | CC1(C)CCC(CN2CCN(c3ccc(C(=O)NS(=O)(=O)c4ccc(N[C@H]5CC[C@H](NS(C)(=O)=O)CC5)c([N+](=O)[O-])c4)c(Oc4cnc5[nH]ccc5c4)c3)CC2)=C(c2ccc(Cl)cc2)C1 [Example 189, Trans-4-(4-{[2-(4-chlorophenyl)-4,4-dimethylcyclohex-1-en-1-yl]methyl}piperazin-1-yl)-N-{[4-({4-[(methylsulfonyl)amino]cyclohexyl}amino)-3-nitrophenyl]sulfonyl}-2-(1H-pyrrolo[2,3-b]pyridin-5-yloxy)benzamide] | 0.018 | –
5 | CC1(C)CCC(CN2CCN(c3ccc(C(=O)NS(=O)(=O)c4cnc(N[C@@H]5CCN(C(CF)CF)C5)c(Cl)c4)c(Oc4cnc5[nH]ccc5c4)c3)CC2)=C(c2ccc(Cl)cc2)C1 [Example 231, N-[(5-chloro-6-{[(3R)-1-(1,3-difluoropropan-2-yl)pyrrolidin-3-yl]amino}pyridin-3-yl)sulfonyl]-4-(4-{[2-(4-chlorophenyl)-4,4-dimethylcyclohex-1-en-1-yl]methyl}piperazin-1-yl)-2-(1H-pyrrolo[2,3-b]pyridin-5-yloxy)benzamide] | 0.77 | –
6 | O=C(NS(=O)(=O)c1cnc(OCC2CCOCC2)c(Cl)c1)c1ccc(N2CCN(CC3=C(c4ccc(Cl)cc4)CCC4(CCN(C(CF)CF)CC4)C3)CC2)cc1Oc1cnc2[nH]ccc2c1 [Example 267, 4-(4-{[9-(4-chlorophenyl)-3-(1,3-difluoropropan-2-yl)-3-azaspiro[5.5]undec-8-en-8-yl]methyl}piperazin-1-yl)-N-{[5-chloro-6-(tetrahydro-2H-pyran-4-ylmethoxy)pyridin-3-yl]sulfonyl}-2-(1H-pyrrolo[2,3-b]pyridin-5-yloxy)benzamide] | 0.035 | –
7 | CO[C@H]1CC[C@H](COc2ncc(S(=O)(=O)NC(=O)c3ccc(N4CCN(CC5=C(c6ccc(Cl)cc6)CC(C)(C)CC5)CC4)cc3Oc3cnc4[nH]ccc4c3)cc2C(F)(F)F)CC1 [Example 300, 4-(4-{[2-(4-chlorophenyl)-4,4-dimethylcyclohex-1-en-1-yl]methyl}piperazin-1-yl)-N-({6-[(trans-4-methoxycyclohexyl)methoxy]-5-(trifluoromethyl)pyridin-3-yl}sulfonyl)-2-(1H-pyrrolo[2,3-b]pyridin-5-yloxy)benzamide] | 1.63 | –
8 | CO[C@H]1CC[C@@H](COc2ncc(S(=O)(=O)NC(=O)c3ccc(N4CCN(CC5=C(c6ccc(Cl)cc6)CC(C)(C)CC5)CC4)cc3Oc3cnc4[nH]ccc4c3)cc2C(F)(F)F)CC1 [Example 301, 4-(4-{[2-(4-chlorophenyl)-4,4-dimethylcyclohex-1-en-1-yl]methyl}piperazin-1-yl)-N-({6-[(cis-4-methoxycyclohexyl)methoxy]-5-(trifluoromethyl)pyridin-3-yl}sulfonyl)-2-(1H-pyrrolo[2,3-b]pyridin-5-yloxy)benzamide] | 2.06 | –
9 | CC1(C)CCC(CN2CCN(c3ccc(C(=O)NS(=O)(=O)c4cnc(OC[C@@H]5CN(C6CC6)CCO5)c(Cl)c4)c(Oc4cnc5[nH]ccc5c4)c3)CC2)=C(c2ccc(Cl)cc2)C1 [Example 314, N-[(5-chloro-6-{[(2S)-4-cyclopropylmorpholin-2-yl]methoxy}pyridin-3-yl)sulfonyl]-4-(4-{[2-(4-chlorophenyl)-4,4-dimethylcyclohex-1-en-1-yl]methyl}piperazin-1-yl)-2-(1H-pyrrolo[2,3-b]pyridin-5-yloxy)benzamide] | 0.042 | –
